## Ab-14 light chain CDR variants: yeast mating affinities

Target peptide (SARS-CoV-2 spike, HR2 region): PDVDLGDISGINAS

Each scFv is VH, a 15-residue (Gly4Ser)3 linker, VL, as in the parent Ab-14, and differs from it in the CDRs of the light chain only.
VH: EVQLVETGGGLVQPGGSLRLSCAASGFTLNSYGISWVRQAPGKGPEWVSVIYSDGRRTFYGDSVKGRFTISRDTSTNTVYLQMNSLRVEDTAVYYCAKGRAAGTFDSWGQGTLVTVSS
VL: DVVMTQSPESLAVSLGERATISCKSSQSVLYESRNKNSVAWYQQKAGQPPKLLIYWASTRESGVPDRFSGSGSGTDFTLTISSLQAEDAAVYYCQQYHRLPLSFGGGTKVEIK

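Phage display of a naive human antibody library on the peptide gave the parent. The variants were designed computationally from a first round of random CDR variants and then made and measured. Their group label is 14L_GP_HC (GP: Gaussian process model; HC: hill climbing; a sequence that several methods proposed may carry one label only). The assay is AlphaSeq: two haploid yeast populations carry antibody and antigen on their surface. Mating (16 h, 30 °C) was followed by selection of diploids and sequencing of their barcodes. A regression on co-assayed BCL2-family reference pairs converts the normalised counts of each replicate to an apparent Kd. The assay was run in six technical replicates.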

Variants are written as CDR1, CDR2 and CDR3 of the light chain (limits as in the source). Parent: KSSQSVLYESRNKNSVA, WASTRES, QQYHRLPLS. Affinities are written as log10 Kd with Kd in nM; a lower number is a better binder. An entry "ND" has no value in the source: the pair was not observed among the diploids in that replicate. This suggests poor binding but is not conclusive. Empty control strains, which show no peptide, gave a signal in 4% of pairings with all light chain designs; the median was 2.64 and 95% of these signals were weaker than 1.59. No background was subtracted. The control count says in how many pairings with the empty strains this scFv gave a signal.

The variant KSGQGWLYESRNKNSVA | GASLRES | QQYHRLPLS showed -0.26, -0.41, -0.30, -0.52, -0.40, -0.41 (controls 0 of 18).
The variant KSSQGYLYESRNKNSVA | GASTRES | QQYHRLPLS showed -0.09, 0.13, 0.27, 0.34, 0.07, 0.09 (controls 1 of 18).
The variant KFSQKVLYEQRTKNSVA | NASTRES | QQYHRLPLS showed 0.29, 0.38, 0.30, -0.11, 0.13, 0.30 (controls 1 of 18).
The variant KSSPSYLIESRNKNSVA | EASTRES | QQYHRLPLS showed -0.03, 0.03, 0.38, -0.14, 0.43, 0.25 (controls 1 of 18).
The variant KSSPSVLYESRNGNSVA | NASTRES | QQYHRLPLS showed 0.10, -0.02, -0.15, -0.28, -0.09, -0.21 (controls 0 of 18).
The variant KFSQSVLYESTTDNSVA | NASTRES | QQYHRLPLS showed 0.25, 0.42, 0.23, -0.17, 0.08, 0.44 (controls 0 of 18).
The variant KSSISYLYESPNKNSVA | EASTREQ | QQYHRLPLS showed 0.69, 0.61, 0.05, 1.08, 0.29, 0.88 (controls 2 of 18).
The variant KVSQSWLMESRNKNSVA | EASTRMS | QQYHRLPLS showed -0.25, 0.01, -0.40, 0.05, -0.23, 0.37 (controls 0 of 18).
The variant KSSISYLGESRNENSVA | EASTREQ | QQYHRLPLS showed 0.15, 0.31, 0.19, 0.36, 0.22, 0.22 (controls 0 of 18).
The variant KQSQEHLYESRNKNSVA | DASTREQ | QQYHRLPLS showed 0.24, -0.40, -0.65, -0.47, -0.49, 0.34 (controls 0 of 18).
The variant KQSQMVPFESRNKNSVA | DASTRES | QQYHRLPLS showed 0.19, 0.10, 0.10, 0.04, 0.12, 0.29 (controls 1 of 18).
The variant KSGQGGLYESRNKNSVA | GASLRES | QQYHRLPLS showed 0.29, -0.05, 0.04, 0.11, -0.07, 0.28 (controls 2 of 18).
The variant LSSISYWYESPNKNSVA | EASTRES | QQYHRLPLS showed 1.07, 0.80, 2.89, 0.87, 0.24, 0.96 (controls 0 of 18).
The variant HSSPSVEYESRNKNSVA | NASERES | QQYHRLPLS showed 0.70, 0.29, 0.25, 0.21, 0.26, 0.44 (controls 0 of 18).
The variant KSSQSVDMESRNANSVA | DASTRES | QQYHRLPLS showed 0.23, -0.19, 0.30, 0.05, 0.16, -0.01 (controls 0 of 18).
The variant KSSGSGLYESRNKNSVA | EASTRES | QQYHRLPLS showed -0.64, -0.30, -0.95, -0.43, -0.62, 0.21 (controls 0 of 18).
The variant KSSISYLGGKRNKNSVA | EASTRES | QQYHRLPLS showed 0.86, 0.90, 1.28, 1.35, 1.12, 1.18 (controls 1 of 18).
The variant QSSQSVLYESRNKNSVA | GASTRES | QQYHRLPLS showed 0.78, 0.98, 0.74, 0.51, 0.26, 0.94 (controls 0 of 18).
The variant KLSQSTLYESRNPNSVA | NASTRES | QQYHRLPLS showed 0.63, 0.05, 0.29, 1.29, 0.06, 0.54 (controls 0 of 18).
The variant KQSQSVLYESRNKNSVA | EASTRES | QQYQRLPLS showed 0.22, 0.51, 0.74, 0.46, 0.32, 0.73 (controls 1 of 18).
The variant HVSPSVPYESRNKNSVA | NASTRES | QQYHRLPLS showed ND, ND, ND, ND, ND, ND (controls 0 of 18).
The variant HLSPSVLYESRNKNSVA | NASTRES | QQYHRLPLQ showed -0.65, -0.51, -0.77, -0.91, -0.70, -0.64 (controls 1 of 18).
The variant KQSESVLYESRNKNSVA | DASTRSS | QQYHRLPLS showed 0.19, 0.05, -0.17, 0.05, 0.08, 0.11 (controls 0 of 18).
The variant KLMQSVLYESRNKNSVA | HASKRED | QQYHRLPLS showed 0.51, 0.36, 1.32, 1.24, 0.38, 0.54 (controls 1 of 18).
The variant KLRQSTLYESRNKNSVA | QASTRES | QQYHRLPLM showed 0.73, 0.81, 0.39, 0.66, 0.42, 1.18 (controls 2 of 18).
The variant KLMQSTLYESRNQNSVA | NASTRES | QQYHRLPLS showed 0.13, -0.21, -0.21, -0.50, -0.06, 0.12 (controls 1 of 18).
The variant KVSQSVLYESRTKNSVA | NASTRES | QQYHRLPLS showed 0.09, -0.26, 0.04, -0.01, -0.18, -0.07 (controls 3 of 18).
The variant HSSQGWLYESRNKNSVA | GASTRED | QQYHRLPLS showed -0.26, -0.24, -0.44, -0.47, -0.54, -0.04 (controls 1 of 18).
The variant KQSQSVLYESRNKNSVA | DASTRES | QQYHRLPLV showed 0.02, -0.02, -0.12, -0.09, -0.09, -0.14 (controls 3 of 18).
The variant LSSISYLYESPNKNSVA | EASTREL | QQYHRLPLS showed 0.18, 0.21, 2.21, 0.74, 0.15, 0.64 (controls 0 of 18).
The variant KFSQWVLYESRMKNSVA | NASTRES | QQYHRLPLS showed 0.94, 0.86, 0.48, 0.83, 1.20, 0.93 (controls 1 of 18).
The variant KVSQSFLYESRNKNNVA | GASTRES | QQYHRLPLS showed -0.21, -0.40, -0.36, -0.29, -0.34, -0.21 (controls 1 of 18).
The variant HQSPSVLYESRNKNSVA | NASTREV | QQYHRLPLS showed 0.31, 0.59, 0.13, 0.35, 0.26, 0.59 (controls 1 of 18).
The variant KQSQSVLFEWRNKNSVA | DASTRES | QQYHRLPLS showed -0.22, -0.32, -0.07, -0.06, -0.66, 0.25 (controls 0 of 18).
The variant KVSQSVLYESGTKNSVA | NASDRES | QQYHRLPLS showed 0.80, 0.30, 0.39, 0.29, 0.11, 0.38 (controls 1 of 18).
The variant KFSQSVLYESRTKNGVA | NGSTRES | QQYHRLPLS showed -0.06, -0.15, -0.26, -0.11, -0.14, 0.06 (controls 2 of 18).
The variant KVSQSVLYESRNKQSVA | DASTRSS | QQYHRLPLS showed 0.05, -0.15, -0.22, -0.08, -0.05, -0.20 (controls 2 of 18).
The variant KSSWSWLYESNNKNSVA | HASTRED | QQYHRLPLS showed 0.72, 0.40, -0.35, 0.00, 1.14, 1.25 (controls 0 of 18).
The variant KLSQSVLGEQRNKNSVA | DASTRES | QQYHRLPLS showed -0.27, -0.14, -0.20, -0.44, -0.12, -0.01 (controls 0 of 18).
The variant KQSQSVLMEWRNKNSVA | DASTRES | QQYHRLPLS showed -0.23, 0.24, -0.63, -0.59, -0.76, -0.26 (controls 0 of 18).
The variant HQSQSVLYESRNKNSVA | NGSTREV | QQYHRLPLS showed 0.18, 0.27, -0.15, -0.10, -0.07, 0.18 (controls 0 of 18).
The variant KLSISYLGEKRNKNSVA | EASTRES | QQYHRLPLS showed 0.59, 0.15, 0.03, -0.35, 0.18, 0.20 (controls 0 of 18).
The variant KLSQSMLYDSRNKNSVA | NASTRES | QQYHRLPLS showed -0.21, -0.28, -0.43, -0.44, -0.45, -0.25 (controls 1 of 18).

The 5 strongest on average among those seen in every replicate, once more:

With HLSPSVLYESRNKNSVA | NASTRES | QQYHRLPLQ the result was -0.65, -0.51, -0.77, -0.91, -0.70, -0.64 (controls 1 of 18).
With KSSGSGLYESRNKNSVA | EASTRES | QQYHRLPLS the result was -0.64, -0.30, -0.95, -0.43, -0.62, 0.21 (controls 0 of 18).
With KSGQGWLYESRNKNSVA | GASLRES | QQYHRLPLS the result was -0.26, -0.41, -0.30, -0.52, -0.40, -0.41 (controls 0 of 18).
With KQSQSVLMEWRNKNSVA | DASTRES | QQYHRLPLS the result was -0.23, 0.24, -0.63, -0.59, -0.76, -0.26 (controls 0 of 18).
With KLSQSMLYDSRNKNSVA | NASTRES | QQYHRLPLS the result was -0.21, -0.28, -0.43, -0.44, -0.45, -0.25 (controls 1 of 18).

Values of this round are not directly comparable with the first-round values of the same sequences. The parent sequence was in this pool as ten entries: three were never detected, three once, and four in most replicates, with averages from 0.34 to 2.37. The authors' rule: three or more of the six replicates give a measured affinity, fewer mean a poor binder.

Data: MIT Lincoln Laboratory AlphaSeq set, Li et al. 2023, doi:10.1038/s41467-023-39022-2, as distributed in FLAb.